Source: PubChem BioAssay AID1511 (Johns Hopkins Ion Channel Center, 2009)
Only a part is listed here, and it is no random draw. Some salts and complexes are drawn in separate pieces, as the source files them; their charges need not balance. Active and inactive are the calls of the source.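 The calls were made as follows: active = activation above the mean of controls blocked by dofetilide plus 5 SD; inactive = the rest.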

Chains of the proteins cited; added tags and fusions are not shown.
UniProt Q12809, whole entry: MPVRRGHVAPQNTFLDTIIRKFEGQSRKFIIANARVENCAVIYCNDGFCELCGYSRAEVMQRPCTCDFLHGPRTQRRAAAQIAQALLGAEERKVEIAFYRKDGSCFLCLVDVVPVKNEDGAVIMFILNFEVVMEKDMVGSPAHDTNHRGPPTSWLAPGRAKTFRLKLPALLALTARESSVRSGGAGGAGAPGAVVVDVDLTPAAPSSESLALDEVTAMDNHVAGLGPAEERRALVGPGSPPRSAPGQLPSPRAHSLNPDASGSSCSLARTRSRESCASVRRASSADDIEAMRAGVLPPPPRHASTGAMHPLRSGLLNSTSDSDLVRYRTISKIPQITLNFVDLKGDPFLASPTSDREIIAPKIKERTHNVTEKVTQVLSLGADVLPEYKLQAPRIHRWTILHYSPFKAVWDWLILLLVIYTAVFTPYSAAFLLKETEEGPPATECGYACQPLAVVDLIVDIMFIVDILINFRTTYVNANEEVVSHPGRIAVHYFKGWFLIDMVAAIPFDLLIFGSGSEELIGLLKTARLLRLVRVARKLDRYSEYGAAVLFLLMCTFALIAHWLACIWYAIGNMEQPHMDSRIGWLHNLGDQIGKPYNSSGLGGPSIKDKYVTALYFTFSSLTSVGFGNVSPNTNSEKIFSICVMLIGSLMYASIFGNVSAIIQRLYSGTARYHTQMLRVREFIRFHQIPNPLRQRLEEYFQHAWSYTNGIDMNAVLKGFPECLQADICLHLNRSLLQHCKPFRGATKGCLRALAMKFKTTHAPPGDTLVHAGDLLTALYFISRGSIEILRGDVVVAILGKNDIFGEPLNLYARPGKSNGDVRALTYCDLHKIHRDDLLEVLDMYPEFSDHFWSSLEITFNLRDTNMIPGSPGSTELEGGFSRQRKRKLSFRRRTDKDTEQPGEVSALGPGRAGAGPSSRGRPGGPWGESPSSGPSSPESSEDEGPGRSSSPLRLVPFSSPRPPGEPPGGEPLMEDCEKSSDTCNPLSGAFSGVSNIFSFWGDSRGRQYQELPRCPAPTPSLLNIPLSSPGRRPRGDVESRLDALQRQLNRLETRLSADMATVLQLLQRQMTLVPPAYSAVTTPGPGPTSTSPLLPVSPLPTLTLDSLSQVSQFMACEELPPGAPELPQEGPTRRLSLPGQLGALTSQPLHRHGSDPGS

molecular target: Voltage-gated inwardly rectifying potassium channel KCNH2 (Homo sapiens) (UniProt Q12809); test: PubChem AID 1511; conditions: CHO-hERG, FluxOR thallium flux, dofetilide IC70 present; at 10 µM; hits give high values;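 also: thallium influx through hERG after potassium depolarization seen as dye fluorescence rise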

SMILES	activation (rescue from dofetilide block), less the hit threshold
CCOC(=O)c1ccc(NP(C)(=O)Oc2ccc(OC)cc2)cc1 (stereo not drawn)	inactive: -5.43%
O=[N+]([O-])c1cc([N+](=O)[O-])c(O)c([N+](=O)[O-])c1.c1ccc(Oc2ccncc2)cc1	inactive: 1.71%
CCOP(C)(=S)SCC(=O)NC(C)C(=O)O (stereo not drawn)	inactive: -9.12%
CP(=O)(Nc1ccccn1)Oc1ccc(Cl)cc1 (stereo not drawn)	inactive: -6.48%
CP(=O)(Oc1ccccc1)OC(c1ccccc1)C(F)(F)F (stereo not drawn)	inactive: -13.1%
Cc1cccc(C)c1OP(C)(=O)Nc1ccc(SC(F)(F)F)cc1 (stereo not drawn)	inactive: -6.77%
CP(=O)(Nc1ccc(SC(F)(F)F)cc1)Oc1ccc(Cl)cc1 (stereo not drawn)	inactive: -8.91%
Cc1cc(C)cc(OP(C)(=O)Nc2ccc(SC(F)(F)F)cc2)c1 (stereo not drawn)	inactive: -2.22%
CCc1ccc(OP(C)(=O)N2CCN(c3ccc([N+](=O)[O-])cc3)CC2)cc1 (stereo not drawn)	inactive: -10.3%
CP(=O)(NC(=O)Nc1ccccc1)Oc1ccccc1 (stereo not drawn)	inactive: 2.38%
CP(=S)(Nn1cnnc1)Oc1ccccc1 (stereo not drawn)	inactive: -7.12%
CP(=O)(Nc1ccccc1Br)Oc1ccccc1 (stereo not drawn)	inactive: -9.99%
COc1ccccc1OP(C)(=O)Nc1ccccc1 (stereo not drawn)	inactive: -2.37%
Cc1ccc(NP(C)(=O)Oc2ccccc2)c(C)c1 (stereo not drawn)	inactive: -8.32%
COc1ccccc1OP(C)(=O)Nc1ccc(C)cc1 (stereo not drawn)	inactive: -2.9%
CCOC(=O)c1ccc(NP(C)(=O)Oc2ccccc2)cc1 (stereo not drawn)	inactive: -6.2%
Cc1cc(C)cc(OP(C)(N)=O)c1 (stereo not drawn)	inactive: -8.72%
COc1ccc(OP(C)(=O)Nc2cccc(F)c2)cc1 (stereo not drawn)	inactive: -9.4%
COc1ccccc1OP(C)(=O)Nc1cc(Cl)ccc1C (stereo not drawn)	inactive: -3.67%
O=[N+]([O-])c1cc([N+](=O)[O-])c(Nc2cccnc2)c([N+](=O)[O-])c1	inactive: -13.5%

SMILES	activation (rescue from dofetilide block), less the hit threshold
O=[N+]([O-])c1ccc2c(c1)C=Nc1ccccc1O2	inactive: -11.7%
Cc1cccc(C)c1OP(C)(N)=O (stereo not drawn)	inactive: 1.23%
CC(C)(C)c1ccc(OP(C)(=O)Nc2ccc(SC(F)(F)F)cc2)cc1 (stereo not drawn)	inactive: -2.47%
CCN(CC)CCCOC(=O)C(O)(c1ccccc1)c1ccccc1	inactive: -7.98%
Cc1ccc(C)c(NP(C)(=O)Oc2ccccc2)c1 (stereo not drawn)	inactive: -4.23%
CP(=O)(Nc1cccc(Br)c1)Oc1ccccc1 (stereo not drawn)	inactive: -18.4%
Cc1cc(C)cc(OP(C)(=O)Nc2ccccn2)c1 (stereo not drawn)	inactive: -2.32%
COc1ccccc1OP(C)(=O)Nc1cccc(Br)c1 (stereo not drawn)	inactive: -8.34%
CCOC(=O)c1ccc(NP(C)(=O)Oc2cc(C)cc(C)c2)cc1 (stereo not drawn)	inactive: -5.38%
Cc1cc(C)cc(OP(C)(=O)Nc2ccc(C)cc2C)c1 (stereo not drawn)	inactive: -2.32%
CC1=NCCc2c1[nH]c1ccccc21.O=[N+]([O-])c1cc([N+](=O)[O-])c(O)c([N+](=O)[O-])c1	inactive: -7.74%
O=C(O)c1cccc(Nc2c([N+](=O)[O-])cc([N+](=O)[O-])cc2[N+](=O)[O-])c1	inactive: -8.11%
COc1ccccc1OP(C)(=O)Nc1c(C)cccc1C (stereo not drawn)	inactive: -6.9%
CN1CCCCC1COC(=O)C1(O)c2ccccc2CCc2ccccc21 (stereo not drawn)	inactive: -7.72%
CP(=O)(Nc1ccc(SC(F)(F)F)cc1)Oc1ccccc1 (stereo not drawn)	inactive: -6.2%
CCCOc1ccc(NP(C)(=O)Oc2ccc(Cl)cc2)cc1 (stereo not drawn)	inactive: -7.23%
CCOC(=O)C(CC)C1=NC(C)(C)Cc2ccccc21.O=[N+]([O-])c1cc([N+](=O)[O-])c(O)c([N+](=O)[O-])c1 (stereo not drawn)	inactive: -5.77%
O=[N+]([O-])c1cc([N+](=O)[O-])c(Nc2nnnn2CCO)c([N+](=O)[O-])c1	inactive: -16%
O=[N+]([O-])c1cc([N+](=O)[O-])c(-c2cnn(-c3ccccc3)c2)c([N+](=O)[O-])c1	inactive: -11.9%
O=[N+]([O-])c1cc([N+](=O)[O-])c(-n2nnc3ccccc32)c([N+](=O)[O-])c1	inactive: -19%

SMILES	activation (rescue from dofetilide block), less the hit threshold
CP(=O)(Nc1ccc2c(c1)OCCO2)Oc1ccccc1 (stereo not drawn)	inactive: -6.91%
CP(=O)(Nc1ccc(SC(F)(F)F)cc1)Oc1ccc(F)cc1 (stereo not drawn)	inactive: -12.8%
CCOP(C)(=S)SCC(=O)NC(C)(CC)C(=O)O (stereo not drawn)	inactive: -2.22%
O=[N+]([O-])c1ccc(OP2(=O)COCCO2)cc1 (stereo not drawn)	inactive: -4.11%
O=[N+]([O-])c1cc([N+](=O)[O-])c(NCC2CCS(=O)(=O)C2)c([N+](=O)[O-])c1 (stereo not drawn)	inactive: -8.09%
Cc1cc(-c2cccc3ccccc23)c(C)cn1.O=[N+]([O-])c1cc([N+](=O)[O-])c(O)c([N+](=O)[O-])c1	inactive: -8.64%
COc1ccc(OP(C)(=O)Nc2cccc(Br)c2)cc1 (stereo not drawn)	inactive: -11.4%
CN(C)CCOC(=O)C(O)(c1ccccc1)C1CCCCC1 (stereo not drawn)	inactive: -1.91%
COc1ccc(NP(C)(=O)Oc2ccccc2OC)cc1 (stereo not drawn)	inactive: 0.87%
CCN(CC)CCCOC(=O)C(O)(c1ccccc1)C1CCCCC1 (stereo not drawn)	inactive: -13.2%
CP(=O)(Nc1ccccc1)Oc1ccc(F)cc1 (stereo not drawn)	inactive: -7.41%
CCCCCOc1ccc(NP(C)(=O)Oc2ccc(Cl)cc2Cl)cc1 (stereo not drawn)	inactive: -10%
O=[N+]([O-])c1cc([N+](=O)[O-])c(OC2CCCCC2O)c([N+](=O)[O-])c1 (stereo not drawn)	inactive: -6.33%
CCOC(=O)c1ccc(NP(C)(=O)Oc2ccc(F)cc2)cc1 (stereo not drawn)	inactive: -3.47%
COc1ccc(OP(C)(=O)Nc2ccc(SC(F)(F)F)cc2)cc1 (stereo not drawn)	inactive: -5.34%
O=C(OC1CN2CCC1CC2)c1ccc([N+](=O)[O-])cc1 (stereo not drawn)	inactive: -6.55%
O=C(OCCN1CCN(CCOCc2ccccc2)CC1)C(O)(c1ccccc1)c1ccccc1	inactive: -9.24%
COc1ccc2c(c1O)-c1c(O)c(OC)cc3c1[C@H](C2)[N+](C)(C)CC3.O=[N+]([O-])c1cc([N+](=O)[O-])c([O-])c([N+](=O)[O-])c1[O-]	inactive: -12.8%
